# Values quoted from earlier work, collected in patent US20160058752A1, “TOPICAL […]-AFFECTIVE (TPNA) THERAPY FOR N[…]” (AFGIN PHARMA, LLC, priority 2014, published 2016).
# System: opiate receptors on nerve endings
# Details: compounded in cold cream, applied locally to the skin at areas of pain; cited from earlier work
smiles,measurement,value
CN1CC[C@]23c4c5ccc(O)c4O[C@H]2[C@@H](O)C=C[C@H]3[C@H]1C5 [morphine],pain relief,provided relief
